This note sets out measurements from patent US20200131144A1, “AMINE OR (THIO)AMIDE CONTAINING LXR MODULATORS” (Phenex-FXR GmbH, priority 2017, published 2020).

Chains of the proteins cited; added tags and fusions are not shown. A line that says so, or that is headed by a name, gives the form on record, which may keep a tag or linker. Residues count along the entry.
UniProt P55055, 156-460 with tags or gaps INS174Q limits assumed: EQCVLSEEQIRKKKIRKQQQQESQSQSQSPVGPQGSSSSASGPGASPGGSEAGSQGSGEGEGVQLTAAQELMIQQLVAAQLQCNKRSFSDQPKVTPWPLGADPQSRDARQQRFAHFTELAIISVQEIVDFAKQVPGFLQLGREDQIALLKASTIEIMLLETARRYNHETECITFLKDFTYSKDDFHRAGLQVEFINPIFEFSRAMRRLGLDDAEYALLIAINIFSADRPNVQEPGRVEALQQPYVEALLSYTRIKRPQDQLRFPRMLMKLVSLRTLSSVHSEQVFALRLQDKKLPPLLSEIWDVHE
UniProt P55055, with tags, fused parts or gaps INS174Q: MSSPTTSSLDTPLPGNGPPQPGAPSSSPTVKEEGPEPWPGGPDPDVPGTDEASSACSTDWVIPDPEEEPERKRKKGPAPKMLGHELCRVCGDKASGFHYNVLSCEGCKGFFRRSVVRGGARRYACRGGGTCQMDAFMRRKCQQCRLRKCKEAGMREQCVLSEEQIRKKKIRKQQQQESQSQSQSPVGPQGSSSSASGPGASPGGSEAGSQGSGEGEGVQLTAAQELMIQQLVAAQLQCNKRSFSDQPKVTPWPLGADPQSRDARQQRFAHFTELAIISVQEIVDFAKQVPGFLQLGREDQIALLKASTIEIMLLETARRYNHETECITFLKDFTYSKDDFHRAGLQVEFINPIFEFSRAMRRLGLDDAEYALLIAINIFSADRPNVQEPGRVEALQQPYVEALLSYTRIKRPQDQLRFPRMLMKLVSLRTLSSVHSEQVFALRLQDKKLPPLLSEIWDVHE
UniProt Q13133, whole entry: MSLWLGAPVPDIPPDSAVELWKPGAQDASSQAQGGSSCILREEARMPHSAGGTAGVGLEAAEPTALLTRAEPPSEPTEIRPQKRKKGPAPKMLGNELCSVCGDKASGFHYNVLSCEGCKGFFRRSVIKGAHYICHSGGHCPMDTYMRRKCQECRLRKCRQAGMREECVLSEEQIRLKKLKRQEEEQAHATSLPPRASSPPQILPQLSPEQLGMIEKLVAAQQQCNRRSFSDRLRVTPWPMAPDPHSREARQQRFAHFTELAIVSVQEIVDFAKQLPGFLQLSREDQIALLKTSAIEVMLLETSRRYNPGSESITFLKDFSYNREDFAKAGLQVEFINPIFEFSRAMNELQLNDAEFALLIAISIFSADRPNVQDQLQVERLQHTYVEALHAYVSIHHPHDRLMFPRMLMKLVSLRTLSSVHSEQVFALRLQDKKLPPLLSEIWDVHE
UniProt Q13133, 155-447 limits assumed: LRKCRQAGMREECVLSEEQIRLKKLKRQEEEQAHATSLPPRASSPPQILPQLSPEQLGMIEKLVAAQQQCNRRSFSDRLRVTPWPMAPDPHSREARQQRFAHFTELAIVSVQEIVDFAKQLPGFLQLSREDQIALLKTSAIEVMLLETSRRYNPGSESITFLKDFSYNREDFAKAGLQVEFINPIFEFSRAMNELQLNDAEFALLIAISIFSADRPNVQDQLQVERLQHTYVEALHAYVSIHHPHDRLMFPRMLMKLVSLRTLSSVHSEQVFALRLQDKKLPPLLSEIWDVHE

The target of experiment [1] is GST-LXRβ ligand-binding domain (Homo sapiens, UniProt P55055, INS174Q). As to the kind of experiment: TR-FRETβ activity assay (NCoA3 coactivator peptide recruitment). The note with it: read-out: FRETβ; 1 μM 24(S)-25-epoxycholesterol as prestimulating agonist; inverse agonist unless *. The protocol:
(§1) The tested compounds were usually dissolved, tested and stored as 20 mM stock solutions in DMSO. Since sulfonyl acetic acid derivatives tend to decarboxylate under these conditions, these stock solutions were prepared, tested and stored as 20 mM DMSO stock solutions containing 100 mM trifluoroacetic acid (5 equivalents). Sulfonyl acetic acid derivatives are shelf stable as solid at rt for long time as reported by Griesbrecht et al. (Synlett 2010:374) or Faucher et al. (J. Med. Chem. 2004; 47:18).
Recombinant GST-LXRβ ligand-binding domain (LBD; amino acids 156-461; NP009052; SEQ ID NO:4) was expressed in E. coli and purified via gluthatione-sepharose affinity chromatography. N-terminally biotinylated NCoA3 coactivator peptide (SEQ ID NO:7) was chemically synthesized (Eurogentec). Assays were done in 384 well format (final assay volume of 25 μL/well) in a Tris/HCl buffer (pH 6.8) containing KCl, bovine serum albumin, Triton-X-100 and 1 μM 24(S)-25-epoxycholesterol as LXR-prestimulating agonist. Assay buffer was provided and test articles (potential LXR inverse agonists) were titrated to yield final assay concentrations of 50 μM, 16.7 μM, 5.6 μM, 1.9 μM, 0.6 μM, 0.2 μM, 0.07 μM, 0.02 μM, 0.007 μM, 0.002 μM with one vehicle control. Finally, a detection mix was added containing anti GST-Tb cryptate (CisBio; 610SAXLB) and Streptavidin-XL665 (CisBio; 610SAXLB) as fluorescent donor and acceptor, respectively, as well as the coactivator peptide and LXRβ-LBD protein (SEQ ID NO:4). The reaction was mixed thoroughly, equilibrated for 1 h at 4° C. and vicinity of LXRβ and coactivator peptide was detected by measurement of fluorescence in a VictorX4 multiplate reader (PerkinElmer Life Science) using 340 nm as excitation and 615 and 665 nm as emission wavelengths. Assays were performed in triplicates.
Final Assay Concentrations of Components:
240 mM KCl, 1 μg/μL BSA, 0.002% Triton-X-100, 125 pg/μL anti GST-Tb cryptate, 2.5 ng/μL Streptavidin-XL665, coactivator peptide (400 nM), LXRP protein ([…], i.e. 76 nM).

The target in a further experiment is LXRα full length (FL) (Homo sapiens, UniProt Q13133). As to the kind of experiment: LXR Gal4 reporter transient transfection assay, mammalian two-hybrid, FL-M2H Gal4α. The note with it: read-out: FL-M2H Gal4α; HEK293 cells; inverse agonist unless *. The protocol: as §1
(§2) LXR Gal4 Reporter Transient Transfection Assays
(§3) LXRα and LXRβ activity status was determined via detection of interaction with coactivator and corepressor proteins in mammalian two-hybrid experiments (M2H). […] As cofactors, domains of either the steroid receptor coactivator 1 (SRC1; amino acids 552-887; SEQ ID NO:5) or of the corepressor NCoR (amino acids 1906-2312; NP006302; SEQ ID NO:6) were expressed as fusions to the DNA binding domain of the yeast transcription factor GAL4 (from pCMV-BD; Stratagene). Interaction was monitored via activation of a coexpressed Firefly Luciferase Reporter gene under control of a promoter containing repetitive GAL4 response elements (vector pFRLuc; Stratagene). […] Measurements of luminescence were done in a BMG-luminometer.

The next experiment deals with LXRβ full length (FL) (Homo sapiens, UniProt P55055, INS174Q). As to the kind of experiment: LXR Gal4 reporter transient transfection assay, mammalian two-hybrid, FL-M2H Gal4β. Conditions: read-out: FL-M2H Gal4β; HEK293 cells; inverse agonist unless *. The protocol: as §1, §2, §3
Experiment [2] addresses LXRα ligand-binding domain (LBD) (Homo sapiens, UniProt Q13133). Nature of the experiment: LXR Gal4 reporter transient transfection assay, mammalian two-hybrid, LBD-M2H Gal4α. The note with it: read-out: LBD-M2H Gal4α; HEK293 cells; inverse agonist unless *. The protocol:
as §1, §2, §3

For experiment [3], the target named is LXRβ ligand-binding domain (LBD) (Homo sapiens, UniProt P55055, INS174Q). As to the kind of experiment: LXR Gal4 reporter transient transfection assay, mammalian two-hybrid, LBD-M2H Gal4β. Conditions: read-out: LBD-M2H Gal4β; HEK293 cells; inverse agonist unless *. The protocol:
as §1, §2, §3

Regarding `Cc1nc2ccccc2c(C(=O)N(Cc2ccc(-c3cccc(C(C)C(=O)O)c3)cc2)Cc2ccc(C(F)(F)F)o2)c1C` (stereo not drawn), the results for the EC50 (in experiment [1]; at LXRα full length (FL); at LXRβ full length (FL)) were 100 to 1000 nM, less than 100 nM and less than 100 nM, respectively.

For `Cc1ccc2ccccc2c1CN(Cc1ccc(-c2cccc(C3CC3C(=O)O)c2)cc1)Cc1ccc(C(F)(F)F)o1` (stereo not drawn), the results for the EC50 in experiment [2], in experiment [3] and in experiment [1] were less than 100 nM, less than 100 nM and 100 to 1000 nM, respectively.

As for `Cc1nc2ccccc2c(C(=O)N(Cc2ccc(C(=O)OC(C)(C)C)o2)Cc2ncc(-c3cccc(C(C)C(=O)O)c3)cc2Cl)c1C` (stereo not drawn), the figures for the EC50 (in experiment [1]; at LXRα full length (FL); on LXRβ full length (FL)) were greater than 10000 nM, 1000 to 10000 nM and 100 to 1000 nM, respectively.
